# This is a selection; strong and weak results do not stand in their true shares. Active and inactive are the calls of the source.
# Experiment: S. pombe growth modifiers, basal conditions – strain 972, OD600, 24 h, no modulator, primary screen (AID 1090);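 note: basal condition with compound alone and no growth modifier present; test concentration not given here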
# Conditions: S. pombe 972 growth, higher = more signal, called active from +8 up or from −8 down
row,SMILES,z-score
1,COP(=O)(/N=C1/CC(CCCO)=CC(C2CC2)N1Cc1cccc(OC(F)(F)F)c1)OC (stereo not given),inactive: -5.45
2,O=P(/N=C1/CC(CCCO)=CC(C2CC2)N1Cc1cc2c(cc1Br)OCO2)(Oc1ccccc1)Oc1ccccc1 (stereo not given),inactive: -1.89
3,CN1/C(=N\P(=O)(Oc2ccccc2)Oc2ccccc2)CC(CCCO)=CC1c1cccs1 (stereo not given),inactive: -0.669
4,COP(=O)(/N=C1/CC(CCCO)=CC(C2CC2)N1Cc1cc2c(cc1Br)OCO2)OC (stereo not given),inactive: -1.8
5,O=P(/N=C1/CC(CCCO)=CC(C2CC2)N1Cc1cccc(OC(F)(F)F)c1)(Oc1ccccc1)Oc1ccccc1 (stereo not given),inactive: -3.04
6,CC1C=C(CCCO)C/C(=N/P(=O)(Oc2ccccc2)Oc2ccccc2)N1Cc1cccc(OC(F)(F)F)c1 (stereo not given),inactive: -2.67
7,O=P(/N=C1/CC(CCCO)=CC(c2cccs2)N1Cc1cccc(OC(F)(F)F)c1)(Oc1ccccc1)Oc1ccccc1 (stereo not given),active: -11.8
8,CN1/C(=N\P(=O)(Oc2ccccc2)Oc2ccccc2)CC(c2ccc(CO)cc2)=CC1C1CC1 (stereo not given),inactive: -2.87
9,COP(=O)(/N=C1/CC(CCCO)=CC(c2ccc(CN3CCCC3)cc2)N1Cc1cc2c(cc1Br)OCO2)OC (stereo not given),inactive: -2.36
10,O=P(/N=C1/CC(CCCO)=CC(c2ccc(CN3CCCC3)cc2)N1Cc1cc2c(cc1Br)OCO2)(Oc1ccccc1)Oc1ccccc1 (stereo not given),inactive: -2.71
11,CN1/C(=N\P(=O)(Oc2ccccc2)Oc2ccccc2)CC(CCCO)=CC1c1ccc(CN2CCCC2)cc1 (stereo not given),inactive: -0.224
12,O=P(/N=C1/CC(c2ccc(CO)cc2)=CC(c2cccs2)N1Cc1cccc(OC(F)(F)F)c1)(Oc1ccccc1)Oc1ccccc1 (stereo not given),inactive: -7.78
13,COP(=O)(/N=C1/CC(c2ccc(CO)cc2)=CC(c2cccs2)N1C)OC (stereo not given),inactive: -3.53
14,O=P(/N=C1/CC(c2ccc(CO)cc2)=CC(C2CC2)N1Cc1cc2c(cc1Br)OCO2)(Oc1ccccc1)Oc1ccccc1 (stereo not given),inactive: -4.89
15,COP(=O)(/N=C1/CC(c2ccc(CO)cc2)=CC(C2CC2)N1Cc1sc2ccccc2c1Cl)OC (stereo not given),active: -9.01
16,CN1/C(=N\P(=O)(Oc2ccccc2)Oc2ccccc2)CC(c2ccc(CO)cc2)=CC1c1cccs1 (stereo not given),inactive: -3.95
17,O=P(/N=C1/CC(CCCO)=CC(c2cccs2)N1Cc1cc2c(cc1Br)OCO2)(Oc1ccccc1)Oc1ccccc1 (stereo not given),inactive: -3.01
18,COP(=O)(/N=C1/CC(CCCO)=CC(c2ccc(CN3CCCC3)cc2)N1Cc1cccc(OC(F)(F)F)c1)OC (stereo not given),inactive: -5.84
19,COP(=O)(/N=C1/CC(CCCO)=CC(c2ccc(CN3CCCC3)cc2)N1C)OC (stereo not given),inactive: -1.16
20,COP(=O)(/N=C1/CC(CCCO)=CC(C2CC2)N1C)OC (stereo not given),inactive: 0.25
21,COP(=O)(/N=C1/CC(CCCO)=CC(c2cccs2)N1C)OC (stereo not given),inactive: -1.87
22,COP(=O)(/N=C1/CC(c2ccc(CO)cc2)=CC(C2CC2)N1C)OC (stereo not given),inactive: -1.9
23,COP(=O)(/N=C1/CC(CCCO)=CC(C2CC2)N1Cc1sc2ccccc2c1Cl)OC (stereo not given),active: -9.1
24,COP(=O)(/N=C1/CC(CCCO)=CC(C)N1Cc1cccc(OC(F)(F)F)c1)OC (stereo not given),inactive: -2.66
25,COP(=O)(/N=C1/CC(CCCO)=CC(c2ccc(CN3CCCC3)cc2)N1Cc1sc2ccccc2c1Cl)OC (stereo not given),inactive: -4.31
26,O=P(/N=C1/CC(CCCO)=CC(C2CC2)N1Cc1sc2ccccc2c1Cl)(Oc1ccccc1)Oc1ccccc1 (stereo not given),inactive: -4.66
27,COP(=O)(/N=C1/CC(c2ccc(CO)cc2)=CC(C2CC2)N1Cc1cc2c(cc1Br)OCO2)OC (stereo not given),inactive: -5.06
28,O=P(/N=C1/CC(c2ccc(CO)cc2)=CC(C2CC2)N1Cc1sc2ccccc2c1Cl)(Oc1ccccc1)Oc1ccccc1 (stereo not given),inactive: -5.1
29,CN1/C(=N\P(=O)(Oc2ccccc2)Oc2ccccc2)CC(CCCO)=CC1C1CC1 (stereo not given),inactive: 0.181
30,O=P(/N=C1/CC(CCCO)=CC(c2ccc(CN3CCCC3)cc2)N1Cc1sc2ccccc2c1Cl)(Oc1ccccc1)Oc1ccccc1 (stereo not given),active: -11.3

# Reference: PubChem BioAssay AID1090 (ChemBank, 2008)
